Experimental data as given in ChEMBL document CHEMBL4673248, “Discovery and Characterization of BAY 1214784, an Orally Available Spiroindoline Derivative Acting as a Potent and Selective Antagonist of the Human Gonadotropin-Releasing Hormone Receptor as Proven in a First-In-Human Study in Postmenopausal Women” (J Med Chem, 2020).

Assays:
Type in all cases: cell-based
Conditions in all cases: filed as antagonist
[1] = target: T1, Gonadotropin-releasing hormone receptor (Homo sapiens) (UniProt P30968); experiment: Inhibition of Tag-lite green-labeled agonist binding to terbium fluorophore-labeled human N-terminal SNAP-tag GnRh receptor expressed in HEK293 cells assessed as dissociation rate constant by TR-FRET assay
T1 sequence (whole entry): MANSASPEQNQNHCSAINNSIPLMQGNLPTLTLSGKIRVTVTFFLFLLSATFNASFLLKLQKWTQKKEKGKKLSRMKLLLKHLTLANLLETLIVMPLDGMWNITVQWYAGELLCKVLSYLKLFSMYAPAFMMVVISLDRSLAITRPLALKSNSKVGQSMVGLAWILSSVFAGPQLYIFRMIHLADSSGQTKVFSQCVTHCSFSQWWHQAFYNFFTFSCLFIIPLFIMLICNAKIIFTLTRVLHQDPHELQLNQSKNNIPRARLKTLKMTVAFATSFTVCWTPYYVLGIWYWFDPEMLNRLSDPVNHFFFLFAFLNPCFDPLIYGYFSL
Procedure, shortened: (§1)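 Kinetic competition at rt: tracer at 10 nM final with compound, Tb-hGnRH-R cells injected in the reader. TR-FRET read at time zero and every 21 s. Baseline-subtracted traces fitted with the Motulsky–Mahan competitive kinetics model. At least two independent experiments, two replicates each.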

[2] = target: T1, Gonadotropin-releasing hormone receptor (Homo sapiens); experiment: Inhibition of Tag-lite green-labeled agonist binding to terbium fluorophore-labeled human N-terminal SNAP-tag GnRh receptor expressed in HEK293 cells assessed as residence time by TR-FRET assay; procedure, shortened: as §1
[3] = target: T1, Gonadotropin-releasing hormone receptor (Homo sapiens); experiment: Inhibition of Tag-lite green-labeled agonist binding to terbium fluorophore-labeled human N-terminal SNAP-tag GnRh receptor expressed in HEK293 cells assessed as association rate constant by TR-FRET assay; procedure, shortened: as §1

- K [1]: 4.13 10^-3/s
- TIME [2]: 0.117 h
- K [3]: 4.2 10^4/M/s
SMILES: O=C(NCc1ncc(C(F)(F)F)cc1Cl)c1ccc2c(c1)C1(CCS(=O)(=O)CC1)[C@H](C1CC1)N2S(=O)(=O)c1ccc(F)cc1 [BAY-784]
